Values quoted from earlier work in patent publication US20240131013A1, “TETRAHYDRO-1H-PYRIDO[3,4-b]INDOLE ANTI-ESTROGENIC DRUGS” (Olema Pharmaceuticals, Inc., priority 2015, published 2024).

System: PR
Settings: De Savi; cited from earlier work

## C[C@@H]1Cc2c([nH]c3ccccc23)[C@@H](c2ccc(/C=C/C(=O)O)cc2)N1CC(C)(C)F [WO 2014/191726 Example 2]
  PR antagonism pIC50: 8.46 (±0.12)
